Experimental findings from PubChem BioAssay AID1032 (The Scripps Research Institute Molecular Screening Center, 2008) are described below.

Amino acid sequences for entries named in this document (tags omitted). A change or cut given only in a name is not applied to a line headed by its entry.
UniProt P37231: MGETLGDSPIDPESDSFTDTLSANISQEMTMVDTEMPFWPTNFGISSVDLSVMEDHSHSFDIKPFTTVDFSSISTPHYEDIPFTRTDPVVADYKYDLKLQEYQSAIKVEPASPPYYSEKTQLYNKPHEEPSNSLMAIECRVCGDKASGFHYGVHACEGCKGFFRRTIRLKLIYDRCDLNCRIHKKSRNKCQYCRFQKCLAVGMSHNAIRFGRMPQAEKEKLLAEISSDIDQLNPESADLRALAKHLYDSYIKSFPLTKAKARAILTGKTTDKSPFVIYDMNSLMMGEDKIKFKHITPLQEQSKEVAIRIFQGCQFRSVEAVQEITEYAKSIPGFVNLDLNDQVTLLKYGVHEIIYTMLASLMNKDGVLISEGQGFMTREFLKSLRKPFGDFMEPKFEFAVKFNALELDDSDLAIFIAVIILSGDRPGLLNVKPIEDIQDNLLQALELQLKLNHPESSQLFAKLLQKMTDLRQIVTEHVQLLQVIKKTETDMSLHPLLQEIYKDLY

Each structure is given as a SMILES string. The list shows a part of the results, in another mix than the full data. Active and inactive are the calls of the source. Rule as the data show it: active = activation above about 22%; inactive = the rest.

The target of the assay is Peroxisome proliferator-activated receptor gamma (Homo sapiens) (UniProt P37231). As to the kind of experiment: agonists of PPARg-SRC-2 recruitment, primary screen, biochemical, HTS (AID 1032).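 Also: 0% = vehicle and 100% = reference agonist.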 As to conditions: PPARgamma LBD-SRC-2 recruitment, at 8 µM, active compounds read high.
Regarding `CN(C)c1ccc2nc3ccc(=[N+](C)C)cc-3sc2c1`, the activation was active: 474%.
